Measurements as given in patent US11337988B2, “Use of ouabain antagonists to inhibit viral infection” (priority 2018, dated 2022).

What was measured:
RSV-GFP [1] = assay: Time of addition experiment, RSV-GFP in A549 cells, GFP by flow cytometry; details: A549, RSV-GFP MOI=3 PFU/cell, 25 nM ouabain or 20 μM PST2238, analyzed 24 h p.i.
RSV-GFP [2] = assay: RSV-GFP infection of A549 cells, GFP intensity of total well by ELISA reader; details: A549 pre-treated overnight, 25 nM ouabain or 20 μM PST2238 present throughout, RSV-GFP MOI=1 PFU/cell, 17 h p.i.
ATP1A1 = ATP1A1 (Homo sapiens, UniProt P05023); assay: Immunofluorescence microscopy of ATP1A1 expression and localization in uninfected A549 cells; details: 24 h treatment, 25 nM ouabain or 20 μM PST2238

Structure (SMILES)	inhibition of infection, inhibitor added at 10 h p.i. (RSV-GFP [1])	reduction of viral GFP expression compared to mock-treated cells (RSV-GFP [2]) [%]	ATP1A1 level, expression and localization (ATP1A1)
C[C@]12CC[C@H](O)C[C@H]1CC[C@@H]1[C@@H]2CC[C@]2(C)[C@@](O)(c3ccoc3)CC[C@]12O [PST2238, (3β,5β,14β)-21,23-Epoxy-24-norchola-20,22-diene-3,14,17-triol]	almost completely lost	89	no discernible effect
C[C@@H]1O[C@@H](O[C@H]2C[C@@H](O)[C@]3(CO)[C@@H]4[C@@H](CC[C@]3(O)C2)[C@@]2(O)CCC(C3=CC(=O)OC3)[C@@]2(C)C[C@@H]4O)[C@H](O)[C@H](O)[C@H]1O (stereo partly drawn) [ouabain, (1β,3β,5β,11α)-3-[(6-Deoxy-α-L-mannopyranosyl)oxy]-1,5,11,14,19-pentahydroxycard-20(22)-enolide]	almost completely lost	96	greatly reduced
